Binding of CDR-mutated scFvs to a peptide of the spike HR2 region

Binding partner: SARS-CoV-2 spike HR2 peptide, sequence PDVDLGDISGINAS.

The variants keep the light chain, the linker and the frameworks of Ab-14 (scFv order VH, three GGGGS repeats, VL).
VH: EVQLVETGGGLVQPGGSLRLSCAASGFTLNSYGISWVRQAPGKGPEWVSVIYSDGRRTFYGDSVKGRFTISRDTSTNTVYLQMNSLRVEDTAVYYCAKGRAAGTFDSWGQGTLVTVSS
VL: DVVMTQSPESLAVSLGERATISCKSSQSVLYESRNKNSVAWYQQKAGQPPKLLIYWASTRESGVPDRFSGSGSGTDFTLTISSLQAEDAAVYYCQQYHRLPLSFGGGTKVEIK

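The parent was found by panning a naive human phage display library on the peptide. AAYL49 was designed without a model: most single CDR substitutions and a random sample of double and triple ones. Affinity was read by AlphaSeq, a pooled yeast mating assay with surface-displayed partners. After mating in shaken culture at 30 °C for 16 h, diploids were selected and their barcode pairs sequenced. Each replicate has its own calibration line, from reference interactions of the BCL2 family. Each pool was mated in three replicate cultures.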

Each variant is given by its three heavy chain CDRs, as the data file delimits them; those of the parent are GFTLNSYGIS, VIYSDGRRTFYGDSVK, GRAAGTFDS.
Affinities are written as log10 Kd with Kd in nM; a lower number is a better binder.
"ND" means that the variant was in the library but no mating with the target was seen in that replicate; the authors take this as a sign of poor binding, and no number exists.
Parent in this assay: reference entry 0.65, copy in this library 4.11 (one replicate of three).
Background: pairings of library AAYL49 with three empty control strains gave a value in 15% of cases (median 4.06, 5th percentile 2.83). Values in that range, when seen in few replicates, are hard to tell from nonspecific mating. For each scFv, signals with the empty controls are counted beside the result, with their mean in brackets.

| CDR-H1 | CDR-H2 | CDR-H3 | log10 Kd (nM) by replicate | control signals |
|---|---|---|---|---|
| GFTLNSYHIS | VIYSDGRRHFYGDSVK | GRAAGTYDS | ND / ND / ND | 0 of 9 |
| GITLNSKGGS | VIYSDGRRTFYGDSVK | GRAAGTFDS | ND / 3.83 / ND | 5 of 9 (4.40) |
| GFTLNEYGIS | VIYSDKRRTFYGDSVK | FRAAGTFDS | 3.77 / 4.09 / 4.63 | 3 of 9 (3.65) |
| GFTLNSYGIS | VIYSDGRRTFYGDSTK | GRAAGTLDS | ND / 4.33 / ND | 3 of 9 (3.95) |
| GFTLNSAGIS | VIYSVGRRTYYGDSVK | GRAAGTFDS | ND / ND / ND | 1 of 9 (3.67) |
| GFKLNSYGIS | RIYSDGRRTFYVDSVK | GRAAGTFDS | ND / ND / ND | 0 of 9 |
| GFTLNSYGIS | VIYSDGRRGFYGWSVK | GRAAGTFDT | 5.17 / ND / ND | 5 of 9 (4.47) |
| GFTLNSYGIS | VINSDGRRTFYGPSVK | GRAAGMFDS | ND / 2.53 / ND | 1 of 9 (3.23) |
| GHTLNSYGIS | VIYSDGRRIFYGDSQK | GRAAGTFDS | ND / ND / ND | 1 of 9 (2.24) |
| GFTLNSYGIS | VIYSDGRRTFYGDSVS | GRAAGTFDV | 0.96 / 1.26 / 1.07 | 0 of 9 |
| GFTLNSCGIS | VIYSDGRRTFYGDSRK | GEAAGTFDS | ND / ND / ND | 0 of 9 |
| GFTLNSYGAS | VIYSDGRRTFYGDSVK | GRAAGTFDS | 3.47 / 3.63 / ND | 0 of 9 |
| GFTLRSYGIS | VIYSDGRRTFYGDFVK | GRAAGEFDS | 4.26 / ND / ND | 3 of 9 (4.24) |
| GFTLNSYGIS | VIYSDGRMTFYGDSVK | PRAAGTFDS | 3.06 / 4.97 / ND | 2 of 9 (3.93) |
| GFTLNSYGIS | VIVSDGRRGFYGDSVK | GRAAGTRDS | 4.98 / 3.82 / ND | 0 of 9 |
| GFTLNSYGIS | VIYSDGRMTFYGESVK | GRAAGTFDQ | ND / ND / ND | 2 of 9 (3.21) |
| AFTLNVYGIS | VIYSDGRRTFYGDSVK | GRAAGTFDS | 2.38 / 2.07 / 2.90 | 1 of 9 (3.86) |
| GFTLNSYGSS | VLYIDGRRTFYGDSVK | GRAAGTFDS | ND / 4.43 / ND | 1 of 9 (4.63) |
| MFTLNSYGIS | VIYSDGRNTFYGFSVK | GRAAGTFDS | ND / ND / ND | 0 of 9 |
| GFTLNSYGWS | VILSDGRRTFYGDSVK | GRAAGTFDS | ND / ND / ND | 1 of 9 (2.93) |
| GFKSNSYGIS | VIYSDGRRTFYGDSVK | GRAAGWFDS | 4.25 / 4.47 / ND | 6 of 9 (4.35) |
| SFTLPSYGIS | VIYSDGRRTFKGDSVK | GRAAGTFDS | ND / ND / ND | 0 of 9 |
| GFTINSYGIS | VSYSDGRRTFYGDSVK | GRAACTFDS | ND / 2.93 / ND | 1 of 9 (3.42) |
| GFTLNSYGIS | VSYSDGRRTFYIDSVK | GNAAGTFDS | 1.51 / 1.33 / 1.46 | 1 of 9 (4.57) |
| GFTLNSYGIS | VIDSDGRRTFYGDHCK | GRAAGTFDS | ND / ND / ND | 0 of 9 |
| GFTLNSYGIS | VIYSDGRTTFYGWSVK | GRAAITFDS | ND / ND / ND | 1 of 9 (3.34) |
| GFRLNWYGIS | VIYSDGRRTFYGDSVK | GGAAGTFDS | 3.89 / 3.07 / ND | 4 of 9 (3.68) |
| WFTLNSYLIS | VIYSDGRRTFYGDSVK | GRAAGTFRS | ND / ND / ND | 0 of 9 |
| DFTLNSYGIS | VIYSDGRRTMRGDSVK | GRAAGTFDS | ND / 5.40 / ND | 3 of 9 (4.19) |
| GFLANSYGIS | VIYSDGRRTFYGDSVK | GQAAGTFDS | 2.09 / 2.84 / 2.57 | 0 of 9 |
| GFTPNSYGIS | VISSDGRRMFYGDSVK | GRAAGTFDS | ND / ND / ND | 0 of 9 |
| GFTLQSYGMS | VIYSDGRRTFYGDSVK | GRAVGTFDS | 1.34 / ND / 1.91 | 0 of 9 |
| GFTLNSYGIS | WILSVGRRTFYGDSVK | GRAAGTFDS | 4.50 / ND / 3.98 | 6 of 9 (3.79) |
| GFTLWSYGIS | VTVSDGRRTFYGDSVK | GRAAGTFDS | ND / 2.98 / ND | 2 of 9 (5.02) |
| GFTLNSYGIS | VIYNDGRRTFYGDSVK | GRAVGTHDS | ND / ND / ND | 0 of 9 |
| GFTLNSYGIS | VIYSDGRETFYGDSVK | GRHAGPFDS | ND / 3.38 / 4.60 | 5 of 9 (3.74) |
| GFILNSYGIS | VIYSDGRRTFYGDAVK | GRTAGTFDS | 0.57 / 0.67 / 0.71 | 3 of 9 (4.90) |

The first 6 variants above that were never detected:

CDR-H1,CDR-H2,CDR-H3,log10 Kd (nM) by replicate,control signals
GFTLNSYHIS,VIYSDGRRHFYGDSVK,GRAAGTYDS,ND / ND / ND,0 of 9
GFTLNSAGIS,VIYSVGRRTYYGDSVK,GRAAGTFDS,ND / ND / ND,1 of 9 (3.67)
GFKLNSYGIS,RIYSDGRRTFYVDSVK,GRAAGTFDS,ND / ND / ND,0 of 9
GHTLNSYGIS,VIYSDGRRIFYGDSQK,GRAAGTFDS,ND / ND / ND,1 of 9 (2.24)
GFTLNSCGIS,VIYSDGRRTFYGDSRK,GEAAGTFDS,ND / ND / ND,0 of 9
GFTLNSYGIS,VIYSDGRMTFYGESVK,GRAAGTFDQ,ND / ND / ND,2 of 9 (3.21)

Values reported by Engelhart et al. 2022, doi:10.1038/s41597-022-01779-4 (FLAb copy).